The text below walks through data of patent US12234211B2, “Cycloolefin substituted heteroaromatic compounds and their use” (HUTCHISON MEDIPHARMA LIMITED, priority 2017, dated 2025).

Usually IC50 stands for the concentration that gives 50% inhibition.

The target of this experiment is T1, IDH2-R140Q (Homo sapiens, UniProt P48735, R140Q).
T1 construct: expressed in transfected cells
T1 sequence (P48735 40-452 R140Q): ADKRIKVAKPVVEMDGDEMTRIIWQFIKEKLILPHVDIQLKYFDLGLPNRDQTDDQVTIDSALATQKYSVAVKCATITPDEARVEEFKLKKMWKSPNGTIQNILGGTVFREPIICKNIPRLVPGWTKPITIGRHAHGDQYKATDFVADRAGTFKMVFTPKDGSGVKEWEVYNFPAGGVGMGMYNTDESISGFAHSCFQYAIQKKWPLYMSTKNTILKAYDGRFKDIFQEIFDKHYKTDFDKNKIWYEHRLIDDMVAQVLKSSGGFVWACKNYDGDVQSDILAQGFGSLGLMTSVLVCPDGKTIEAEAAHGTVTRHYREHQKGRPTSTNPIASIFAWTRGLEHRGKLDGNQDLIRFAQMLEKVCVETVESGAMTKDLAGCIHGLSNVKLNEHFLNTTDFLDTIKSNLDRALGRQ
Put plainly: Fluorescent determination of IDH2-R140Q cell activity (2-HG in U87MGR140Q cells). It counts as cell-based. The following applies: IC50 (2-HG inhibition). As to the method:
Enzyme reaction solution: 1 mM nicotinamide adenine dinucleotide (NAD), 0.6 ng/μL D-2-hydroxyglutarate dehydrogenase (D2HGDH), 0.8 U/mL lipoamidase dehydrogenase (Diaphorase) and 60 μM Resazurin in 40 mM Tris.HCl pH 8.8 assay buffer.
Standard curve stock solution: The standard of 2-HG sodium salt was serially diluted in serum-free MEM medium to make a standard curve stock solution.
100 μL of U87MGR140Q cells were seeded at a density of 6×10^4/mL per well in a 96-well plate a.
From each well of 96-well plate a, 50 μL of the culture supernatant was transferred to the corresponding well of 96-well plate b; at the same time, 50 μL of standard curve stocking solution was added to other wells of 96-well plate b. Then 10 μl of 360 mM hydrochloric acid was added to all the wells. […]
A standard curve of the fluorescence value vs. the corresponding 2-HG concentration was made, and the 2-HG concentration corresponding to each concentration point of the compound was calculated, then the inhibition ratio was calculated, and the data was analyzed using XLfit5 (ID Business Solutions Limited) software to obtain the IC50 value.
The inhibition ratio was calculated as follows: Inhibition Ratio (IH %)=(1-2-HG concentration of test compound treated cells/2-HG concentration of control cells)×100%.

Consider `C[C@@H](Nc1nc(NC2CC(F)(F)C2)nc(C2=CC(O)CCC2)n1)C(F)(F)F` (stereo partly shown) [Compound 153], for which 99 nM corresponded to half-maximal inhibition (IC50).
